Measured values: patent US20100278782A1, “DIFFERENTIATION OF RAT LIVER EPITHELIAL CELLS INTO HEPATOCYTE-LIKE CELLS” (Vrije Universiteit Brussel, priority 2006, published 2010)

Test system: rat hepatocyte HDAC
Assay: Fluor de Lys HDAC inhibition assay in crude rat hepatocyte lysates
Format: biochemical
Details: Fluor de Lys substrate, n = 3 or 4, read-out: Estimated IC50 values for tested compounds
Experimental: Screening of the HDAC inhibiting potencies of the above compounds was performed in crude rat hepatocyte lysates, prepared from freshly isolated cells, using the Fluor de Lys HDAC inhibition assay as detailed in example 9.
A two-step collagenase perfusion technique was used to isolate hepatocytes from male outbred Sprague-Dawley rats (200-300 g; Charles River Laboratories, Brussels, Belgium), which were kept under controlled environmental conditions (12 h light-dark cycle) and fed a standard diet (Animalabo A 04) with water ad libitum. […]
Inhibition of HDAC activity was assessed in crude rat hepatocyte lysates by the Fluor de lys HDAC inhibition protocol as outlined herein: […]
1. bring 10 μl inhibitor/control solvents/assay buffer per well 2. add 15 μl cell extract to each well (for the blank: 15 μl boiled cell extract) 3. incubate 5 min at room temperature (cover plate with aluminium foil) 4. add 25 μl Fluor de Lys substrate to each well (40 μM solution, […]) 5. cover the plate with aluminium foil and incubate 15 min on orbital shaker 6. after 15 min, add 50 μl freshly prepared, ice-cold developer solution to each well 7. cover the plate with aluminium foil and incubate 15 min on orbital shaker 8. Measure the fluorescence in the plate reader […]

## CC(/C=C/C(=O)NO)=C\[C@@H](C)C(=O)c1ccc(N(C)C)cc1 [TSA, Trichostatin A]
  IC50: 9 ± 3 nM
